Apparent affinities of Ab-14 variants for a coronavirus HR2 peptide

Antigen: PDVDLGDISGINAS, a 14-residue peptide of the SARS-CoV-2 spike HR2 region.

Parent: Ab-14, a human scFv built as VH, a 15-residue (Gly4Ser)3 linker, VL. Only the CDRs of the heavy chain vary.
VH: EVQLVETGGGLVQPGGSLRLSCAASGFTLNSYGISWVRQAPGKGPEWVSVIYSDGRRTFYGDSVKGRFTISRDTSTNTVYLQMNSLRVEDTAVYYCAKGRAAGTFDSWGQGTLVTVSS
VL: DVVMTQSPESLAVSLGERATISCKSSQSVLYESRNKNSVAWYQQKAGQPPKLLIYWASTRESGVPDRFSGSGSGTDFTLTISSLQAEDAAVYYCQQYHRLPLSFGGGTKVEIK

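Phage display of a naive human antibody library on the peptide gave the parent. The variants were designed computationally from a first round of random CDR variants and then made and measured. Group labels follow the data file (Ctrl: baseline library sampled from a position-specific scoring matrix, with some repeated check sequences; Rand: our label for a block that the file lists under HC and that is probably the random mutants of the ten best first-round binders; En: ensemble of fine-tuned language models; GP: Gaussian process model; GPLM: also part of the Gaussian process libraries; HC: hill climbing; Gen: genetic algorithm; Gibbs: Gibbs sampling; a sequence that several methods proposed may carry one label only). AlphaSeq pools MATa yeast showing the antibodies with MATalpha yeast showing the peptide. Mating (16 h, 30 °C) was followed by selection of diploids and sequencing of their barcodes. Scores were corrected for input abundance and mapped to Kd with protein pairs of known affinity run in the same pool. There are six technical replicates.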

The parent's heavy chain CDRs are GFTLNSYGIS, VIYSDGRRTFYGDSVK, GRAAGTFDS; each variant's own CDRs replace them letter for letter. Affinities are written as log10 Kd with Kd in nM; a lower number is a better binder. The mean shown is taken over the replicates in which the pair was detected. Where no diploid with the target was found in any replicate, the entry reads "not detected": below detection, most likely a poor binder, though not proof of it. Entries are sorted by rising average, undetected variants last. Of ten entries with the parent sequence, four were seen in most replicates (averages 0.34 to 2.37), three in one and three in none, so single entries are noisy. Nonspecific signal, from three strains lacking the peptide, appeared in 1% of pairings of all heavy chain designs, centred on 2.08 (5% of these signals below 0.84); values are not corrected for it. The range of this assay differs from that of the first round, and the authors advise against merging the two. A sequence that the file lists under several names has all its replicates pooled. The authors' rule: three or more of the six replicates give a measured affinity, fewer mean a poor binder.

CDR-H1,CDR-H2,CDR-H3,group,"log10 Kd (nM), mean",replicates with signal
GFDLNEYGIS,VIYADGMRQAYADSVK,GQNAGTFDV,En_Gen,-0.97,6/6
GFNLNEYGIS,VIYADGRRTFYSDDVK,GEVAGTFDL,En_HC,-0.85,6/6
GFDLNEYGIS,VIYADGRRTFYVDSVK,GTAAGTFDQ,En_HC,-0.49,6/6
GFDLEEYGIS,VIYADGVRTAYADSVK,GNNAGTFDV,En_Gen,-0.47,6/6
GFDLNEYGIS,VIYADGRRTAYADSVK,GNAAGTFDS,En_HC,-0.44,6/6
GFDLDEYGIS,VIYADGMRTFYADSVK,GNIAGTFLD,En_HC,-0.37,6/6
GFELNSYGIS,VIYADGRRTFYGDSVK,GTAAGTFDS,GPLM_Gen,-0.36,6/6
GFDLNEYGIS,VIYADGRRTFYADSVK,GGVAGTFIQ,En_HC,-0.29,6/6
GFDLEDYGIS,VIYADGRRTFYADSVK,GEYAGTFDI,En_HC,-0.21,6/6
GFSLNQYGIS,VIYSDGKRTFYSDSVK,GRAAGTFDS,GPLM_HC,-0.09,6/6
GFDLDEYGIS,VIYADGSRTAYADNVK,GNVAGTFDV,En_Gen,-0.02,6/6
GFNLNEYGIS,VIYADGRRKFYADSVK,GNTAGTFDT,En_HC,0.00,6/6
YFDLNSYGIS,VIYSDGRRTFYGDSVK,GQTAGTFDS,GP_Gen,0.09,6/6
GFVLNSYGIS,VIYADGRRTFYGDSVK,GQAAGTFDT,GP_Gibbs,0.12,6/6
GFTLNEYGIS,VIYSDGRRTFYTDSVK,GRQAGTFDE,GP_HC,0.25,6/6
GFELNEYGIS,VIYSDGRRTFYMDSVK,GRQAGTFDS,GP_Gibbs,0.33,6/6
GFSLNSYGIS,VIYSDGRRTFYADSVK,GKAAGTFDQ,GPLM_Gen,0.40,6/6
GFDLNSYGIS,VIYSDGRRTFYGDSVK,GNEAGTFDT,GP_Gen,0.50,6/6
GFHLNSYGIS,VIYSDGRRTFYTDSVK,GEAAGTFDS,GPLM_Gen,0.51,3/6
GFTLNSYGIS,VIYSDGKRTFYSDSVK,GVAAGTFDS,GP_HC,0.57,6/6
GFNIGEYGIS,VIYADGKRTAYSESVK,GNSAGTFNH,En_Gibbs,0.65,6/6
GFDLNSYGIS,VIYSDGRRTFYADSVK,GHAAGTFDS,GPLM_Gen,0.76,6/6
GFTLNDYGIS,VIYSDGRRTFYGDSVK,GKAAGTFDS,Ctrl+GPLM_HC,0.87,12/12
GFTLNSYGIS,VIYSDGRRTFYGDSVK,GEAAATFDS,Ctrl,0.88,1/6
GFTLNSYGIS,VIYSDGERTFYHDSVK,GRAAGTFDW,Ctrl,0.88,2/6
GFTLNSYGIS,VIYSDGVRTFYIDSVK,GRIAGTFDS,GP_HC,1.01,4/6
GFRLNEYGIS,VIYSDGRRTFYTDSVK,GRFAGTFDS,GPLM_HC,1.06,6/6
GFELNQYGIS,VIYSDGLRTQYGDSVK,GRAAGTFDS,Ctrl,1.16,6/6
GFSLDEYGIS,VIYADGFRTAYTQSVK,GLMQQGRTV,En_Gibbs,1.19,1/6
GFTLNSYGIS,VMYSDGRRTFYDDSVK,GQLAGTFDS,Rand,1.23,6/6
GFSLNYYGIS,VIYSDGRRTFYGDAVK,GKTAGTFDS,GP_Gibbs,1.47,6/6
YFELNSYGIS,VIYADGRRTFYGDSVK,GEAAGTFDS,GP_Gen,1.58,5/6
GFDIDEYGIS,VIYADGIRQFYQDKVK,GNVTGMFDT,En_Gibbs,1.59,6/6
GMDLENYGIS,VIYADGKRKAYAQKFK,GHTGGTFAD,En_Gibbs,1.67,5/6
GFTLNSYGIS,VIYSDGRRCFYSDSVK,GRAAGTFIC,Ctrl,1.74,3/6
GFNIEEYGIS,VIYADGRRTAYAEPVK,GEDGGTIDT,En_Gibbs,2.02,2/6
DFTLNDYGIS,VIYSDGRRTQYIDSVK,GRIAGCFDS,Rand,2.11,1/6
GFELNSYGIS,VIYSDGRRTFYADHVK,GRTAGTFDT,GP_Gibbs,2.26,5/6
KFTLNSYGIS,VIYSDGRRTFYGDSVK,GRNAGTFDS,Ctrl,2.28,1/6
GFTLNSYGIS,VIYSDGRRCFYADSVK,GRAAGTFDH,Ctrl,2.28,5/6
GFDLEEYGIS,VIYADGRRVAYADSVK,GIDVYGKVM,En_Gibbs,2.44,1/6
GFDTNSYGIS,VIYSDGRRTFYGDSVK,GRAAGWFNS,Rand,2.60,2/6
GFWLNEYGIS,VIYSDGRRTFYTDRVK,GEAAGTFDS,GP_HC,2.96,2/6
GFTLNSYGIS,VIYSDGYRTFYGDSVK,GRAAGTFCL,Ctrl,not detected,0/6
GFTLNSCGIS,VIYSDGMRTFYSDSVK,KRAGRTKDS,Rand,not detected,0/6
GFTLNSYGIS,VIYSDGHRTFYEDSVK,GRWAGTFDS,Ctrl,not detected,0/6
GKSLDEYGIS,VIYADGMRTMYTDSVK,GQLDDGMQL,En_Gibbs,not detected,0/6
GFTLNSYGIS,VIYSDGRRTFYSDSVK,GRAAGFFTS,GPLM_HC,not detected,0/6
GFQIDEYGIS,VIYADGQRKAYTENVK,GQHGGMTVA,En_Gibbs,not detected,0/6
GFTLNQYGIS,VIYSDGKRTFYSDSVK,GRAAGTFTS,GP_HC,not detected,0/6
GFMLNSYGIS,VIYSDGRRTFYGDSVK,GYAAGTFDS,Ctrl,not detected,0/6
GWTLNQYGIS,VIYPDGRRTFYADSVK,GRAAGFFDS,Rand,not detected,0/6
GITLNSYGIS,VIYSDGRRTFYGDSVK,GRAYGTFDS,Ctrl,not detected,0/6
GFTLNDYGIS,VIYSDGRRTAYGDSVK,GRAAGTFIS,GPLM_HC,not detected,0/6
GRTLNDYGIS,VIYSDGERTFYGDSVK,GRAAGTFDS,Ctrl,not detected,0/6
GYDLQEYGVS,VIYADGRRSVYINSVK,GLSAGTFVF,En_Gibbs,not detected,0/6
GFDLNSYGIS,VIYSDGRRTFYVDSVK,GQAAGTFDL,GPLM_Gibbs,not detected,0/6
GFTLNSYGIS,VIYSDGRRTFYKDSVK,GQLAGTFDR,GP_HC,not detected,0/6
GQQLDEYGIS,VIYADGVRSSYVDSVK,GEITGTFSE,En_Gibbs,not detected,0/6
GHNLNSYGIS,VIYSDGRRTFYGDSVR,GRAAGTFPS,Ctrl,not detected,0/6
HFDLNSYGIS,VIYSDGRRTFYIDSVK,GQAAGTFDS,GP_Gen,not detected,0/6
GFQLNSYGIS,VIYSDGRRTFYSDSVK,IRAAGTPDS,Ctrl,not detected,0/6
GFSLNSYGIS,VIYSDGRRTFYCDQVK,GKTAGTFDS,GP_Gibbs,not detected,0/6
GFTLNDYGIS,VIYSDGSRTFYGDSVK,GRGAGTFDS,Ctrl,not detected,0/6
GFTLNEVGIS,VIYSDGERTFYGDSVK,GRAWVTIDQ,Rand,not detected,0/6

The closing 8 entries, repeated:

CDR-H1,CDR-H2,CDR-H3,group,"log10 Kd (nM), mean",replicates with signal
GFTLNSYGIS,VIYSDGRRTFYKDSVK,GQLAGTFDR,GP_HC,not detected,0/6
GQQLDEYGIS,VIYADGVRSSYVDSVK,GEITGTFSE,En_Gibbs,not detected,0/6
GHNLNSYGIS,VIYSDGRRTFYGDSVR,GRAAGTFPS,Ctrl,not detected,0/6
HFDLNSYGIS,VIYSDGRRTFYIDSVK,GQAAGTFDS,GP_Gen,not detected,0/6
GFQLNSYGIS,VIYSDGRRTFYSDSVK,IRAAGTPDS,Ctrl,not detected,0/6
GFSLNSYGIS,VIYSDGRRTFYCDQVK,GKTAGTFDS,GP_Gibbs,not detected,0/6
GFTLNDYGIS,VIYSDGSRTFYGDSVK,GRGAGTFDS,Ctrl,not detected,0/6
GFTLNEVGIS,VIYSDGERTFYGDSVK,GRAWVTIDQ,Rand,not detected,0/6

Source: Li et al. 2023 (doi:10.1038/s41467-023-39022-2), MIT Lincoln Laboratory and A-Alpha Bio; data file from the FLAb repository.